Chains of the proteins cited; added tags and fusions are not shown.
UniProt P04049, whole entry Y340E/Y341E: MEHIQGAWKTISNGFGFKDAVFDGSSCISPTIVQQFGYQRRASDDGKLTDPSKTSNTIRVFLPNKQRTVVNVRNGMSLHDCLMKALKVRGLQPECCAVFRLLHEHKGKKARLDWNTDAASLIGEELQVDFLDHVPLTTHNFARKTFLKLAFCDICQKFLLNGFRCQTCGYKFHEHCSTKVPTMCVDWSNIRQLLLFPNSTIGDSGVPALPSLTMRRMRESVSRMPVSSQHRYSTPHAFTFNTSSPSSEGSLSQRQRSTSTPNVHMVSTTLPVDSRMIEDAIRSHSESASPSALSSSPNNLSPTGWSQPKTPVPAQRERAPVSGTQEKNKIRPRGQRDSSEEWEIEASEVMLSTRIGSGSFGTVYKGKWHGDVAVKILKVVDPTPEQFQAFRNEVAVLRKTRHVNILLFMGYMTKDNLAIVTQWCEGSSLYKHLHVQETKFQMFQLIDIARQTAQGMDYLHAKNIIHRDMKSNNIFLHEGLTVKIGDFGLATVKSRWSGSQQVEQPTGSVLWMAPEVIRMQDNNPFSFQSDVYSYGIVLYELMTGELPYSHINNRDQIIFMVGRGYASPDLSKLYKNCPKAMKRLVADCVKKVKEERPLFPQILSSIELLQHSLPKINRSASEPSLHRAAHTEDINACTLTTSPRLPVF

The target in the assay is C-Raf FL (full-length C-Raf with Y340E and Y341E activating mutations) (Homo sapiens (Human), UniProt P04049, Y340E/Y341E). The assay is classed as biochemical. The conditions noted are these: full-length c-Raf 4 pM, ATP 3 uM, 10 nM biotinylated MEK1 kinase dead.
As usually defined, the IC50 is the point on the concentration scale where inhibition reaches its midpoint. Higher therefore signals weaker potency. In turn, `Cc1ccc(NC(=O)c2ccnc(C(C)(C)C#N)c2)cc1-c1ccnc(N2CCOC[C@H]2C)c1` [Example 82, (R)-2-(2-cyanopropan-2-yl)-N-(4-methyl-3-(2-(3-methylmorpholino)pyridin-4-yl)phenyl)isonicotinamide] had an IC50 of 1.77 nM.
Then `Cc1ccc(NC(=O)c2ccnc(C(C)(C)C#N)c2)cc1-c1ccnc(N2CCO[C@H](CO)C2)c1` [Example 83, (S)-2-(2-cyanopropan-2-yl)-N-(3-(2-(2-(hydroxymethyl)morpholino)pyridin-4-yl)-4-methylphenyl)isonicotinamide], with 0.29 nM; and `CNC[C@@H]1CN(c2cc(-c3cc(NC(=O)c4ccnc(C(C)(C)C#N)c4)ccc3C)ccn2)CCO1` [Example 84, (R)-2-(2-cyanopropan-2-yl)-N-(4-methyl-3-(2-(2-((methylamino)methyl)morpholino)pyridin-4-yl)phenyl)isonicotinamide], with 1.22 nM; and `CC(=O)NC[C@@H]1CN(c2cc(-c3cc(NC(=O)c4ccnc(C(C)(C)C#N)c4)ccc3C)ccn2)CCO1` [Example 85, (R)—N-(3-(2-(2-(acetamidomethyl)morpholino)pyridin-4-yl)-4-methylphenyl)-2-(2-cyanopropan-2-yl)isonicotinamide], with 1.34 nM.
Compound `COC(=O)NC[C@@H]1CN(c2cc(-c3cc(NC(=O)c4cccc(C(F)(F)F)c4)cnc3C)ccn2)CCO1` [Example 86, (R)-methyl ((4-(2-methyl-5-(3-(trifluoromethyl)benzamido)-[3,4′-bipyridin]-2′-yl)morpholin-2-yl)methyl)carbamate] showed an IC50 of 1.1 nM.
Then `Cc1ncc(NC(=O)c2cccc(C(F)(F)F)c2)cc1-c1ccnc(N2CCO[C@H](CNC(=O)CO)C2)c1` [Example 87, (R)—N-(2′-(2-((2-hydroxyacetamido)methyl)morpholino)-2-methyl-[3,4′-bipyridin]-5-yl)-3-(trifluoromethyl)benzamide], with 1.5 nM.
As for `CC(F)(F)c1cc(C(=O)Nc2c[nH]c(=O)c(-c3ccnc(N4CCOCC4)c3)c2)ccn1` [Example 89, 2-(1,1-difluoroethyl)-N-(2′-morpholino-2-oxo-1,2-dihydro-[3,4′-bipyridin]-5-yl)isonicotinamide], the figure is 7690 nM; as for `CCn1cc(C(=O)Nc2ccc(C)c(-c3ccnc(N4CCOCC4)c3)c2)cc(C(F)(F)F)c1=O` [Example 94, 1-ethyl-N-(4-methyl-3-(2-morpholinopyridin-4-yl)phenyl)-6-oxo-5-(trifluoromethyl)-1,6-dihydropyridine-3-carboxamide], 0.489 nM.
As for `Cc1ncc(NC(=O)c2cccc(C(F)(F)F)c2)cc1-c1ccnc(N2CCOCC2)c1` [Example 96], the figure is 0.182 nM; as for `COc1ccc(C(=O)Nc2cnc(C)c(-c3ccnc(N4CCOCC4)c3)c2)cc1C(F)(F)F` [Example 97, 4-methoxy-N-(2-methyl-2′-morpholino-[3,4′-bipyridin]-5-yl)-3-(trifluoromethyl)benzamide], 0.998 nM.
On to `Cc1ncc(NC(=O)c2cccc(C(F)F)c2)cc1-c1ccnc(N2CCOCC2)c1` [Example 99, 3-(difluoromethyl)-N-(2-methyl-2′-morpholino-[3,4′-bipyridin]-5-yl)benzamide], for which the IC50 came out at 0.16 nM.
As for `Cc1ncc(NC(=O)c2ccnc(C(C)(F)F)c2)cc1-c1ccnc(N2CCOCC2)c1` [Example 100, 2-(1,1-difluoroethyl)-N-(2-methyl-2′-morpholino-[3,4′-bipyridin]-5-yl)isonicotinamide], the figure is 0.522 nM.
As for `Cc1ncc(NC(=O)c2cccc(C(C)(F)F)c2)cc1-c1ccnc(N2CCOCC2)c1` [Example 101, 3-(1,1-difluoroethyl)-N-(2-methyl-2′-morpholino-[3,4′-bipyridin]-5-yl)benzamide], the figure is 0.253 nM.
Then `Cc1ncc(NC(=O)c2ccnc(S(C)(=O)=O)c2)cc1-c1ccnc(N2CCOCC2)c1` [Example 102, N-(2-methyl-2′-morpholino-[3,4′-bipyridin]-5-yl)-2-(methylsulfonyl)isonicotinamide], with 3.09 nM.
`Cc1ccc(NC(=O)c2ccnc(C(C)(C)C#N)c2)cc1-c1cc(C2CCOCC2)nc(N2CCOCC2)c1` [Example 106, 2-(2-cyanopropan-2-yl)-N-(4-methyl-3-(2-morpholino-6-(tetrahydro-2H-pyran-4-yl)pyridin-4-yl)phenyl)isonicotinamide] gave an IC50 of 0.359 nM.
Then `Cc1ccc(NC(=O)c2cccc(C(F)(F)F)c2)cc1-c1cc(C2CCOCC2)nc(N2CCOCC2)c1` [Example 107, N-(4-methyl-3-(2-morpholino-6-(tetrahydro-2H-pyran-4-yl)pyridin-4-yl)phenyl)-3-(trifluoromethyl)benzamide], with 0.363 nM.
Then `O=C(Nc1cccc(C(F)(F)F)c1)c1ccc(CO)c(-c2ccnc(N3CCOCC3)c2)c1` [Example 108, 4-(hydroxymethyl)-3-(2-morpholinopyridin-4-yl)-N-(3-(trifluoromethyl)phenyl)benzamide], with 0.778 nM.
As to `O=C(Nc1cccc(C(F)(F)F)c1)c1ccc(C(F)F)c(-c2ccnc(N3CCOCC3)c2)c1` [Example 109, 4-(difluoromethyl)-3-(2-morpholinopyridin-4-yl)-N-(3-(trifluoromethyl)phenyl)benzamide], the IC50 was found to be 0.719 nM.
For `O=C(Nc1cccc(C(F)(F)F)c1)c1ccc(CF)c(-c2ccnc(N3CCOCC3)c2)c1` [Example 110, 4-(fluoromethyl)-3-(2-morpholinopyridin-4-yl)-N-(3-(trifluoromethyl)phenyl)benzamide], inhibition was half-maximal at 0.332 nM (IC50).
Then `Cc1ccc(C(=O)Nc2cccc(C(F)(F)F)c2)cc1-c1cc(N2CCOCC2)nc(N2CCOCC2)c1` [Example 112, 3-(2,6-dimorpholinopyridin-4-yl)-4-methyl-N-(3-(trifluoromethyl)phenyl)benzamide], with 0.5 nM; and `Cc1ccc(NC(=O)c2cccc(C(F)(F)F)c2)cc1-c1cc(-c2cnn(C)c2)nc(N2CCOCC2)c1` [Example 113, N-(4-methyl-3-(2-(1-methyl-1H-pyrazol-4-yl)-6-morpholinopyridin-4-yl)phenyl)-3-(trifluoromethyl)benzamide], with 0.465 nM; and `Cc1ccc(NC(=O)c2cccc(C(C)(C)C#N)c2)cc1-c1cc(C2CCOCC2)nc(N2CCOCC2)c1` [Example 114, 3-(2-cyanopropan-2-yl)-N-(4-methyl-3-(2-morpholino-6-(tetrahydro-2H-pyran-4-yl)pyridin-4-yl)phenyl)benzamide], with 0.285 nM.
As for `CCn1cc(C(=O)Nc2ccc(C)c(-c3cc(N4CCOCC4)c(=O)n(C)c3)c2)cc(C(F)(F)F)c1=O` [Example 116, 1-ethyl-N-(4-methyl-3-(1-methyl-5-morpholino-6-oxo-1,6-dihydropyridin-3-yl)phenyl)-6-oxo-5-(trifluoromethyl)-1,6-dihydropyridine-3-carboxamide], the figure is 0.735 nM; as for `Cc1ccc(NC(=O)c2cccc(C(F)(F)F)c2)cc1-c1cncc(N2CCOCC2)n1` [Example 118, N-(4-methyl-3-(6-morpholinopyrazin-2-yl)phenyl)-3-(trifluoromethyl)benzamide], 0.156 nM; as for `Cc1ccc(NC(=O)c2cccc(C(F)(F)F)c2)cc1-c1c[nH]c(=O)c(N2CCOCC2)n1` [Example 120, N-(4-methyl-3-(6-morpholino-5-oxo-4,5-dihydropyrazin-2-yl)phenyl)-3-(trifluoromethyl)benzamide], 0.187 nM.

For the origin of these results see patent publication US9242969B2, “Biaryl amide compounds as kinase inhibitors” (Novartis AG, priority 2013, dated 2016).
